Results taken from patent US20070059799A1 (priority 1999, published 2007).
“Also recorded” adds a separate entry of the source.

Amino acid sequences for entries named in this document (tags omitted). A change or cut given only in a name is not applied to a line headed by its entry. Residues count along the entry.
UniProt P01889, 25-362: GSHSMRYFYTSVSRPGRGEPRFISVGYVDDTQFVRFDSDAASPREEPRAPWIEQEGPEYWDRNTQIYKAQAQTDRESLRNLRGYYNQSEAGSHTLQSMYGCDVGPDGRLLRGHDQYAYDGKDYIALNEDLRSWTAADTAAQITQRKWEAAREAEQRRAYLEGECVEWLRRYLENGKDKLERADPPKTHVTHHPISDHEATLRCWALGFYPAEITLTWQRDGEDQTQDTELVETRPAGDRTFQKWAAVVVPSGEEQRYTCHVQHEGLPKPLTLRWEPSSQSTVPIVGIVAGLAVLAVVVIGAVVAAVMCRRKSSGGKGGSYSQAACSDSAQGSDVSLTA

Key:
[1] = tested on: A*0201/Kb transgenic mice; settings: mouse, in vivo
A*6802 = A*6802 (Homo sapiens, UniProt P04439, A269V/D140Y/D185E/E176V/E277Q/E87N/F33Y/G231S/I121R/I166T/I218V/L180W/L300P/L318F/N151K/P208A/P217A/Q86R/R138H/R169H/S129P/T345S/V36M); assay: Purified HLA class I peptide binding assay
B51 = assay: Purified HLA class I peptide binding assay (B*51); parameters: species or system human; settings: for B*5101 (binding information): HBV B07 supermotif peptides, Table XI, unit not given
common HLA-DR alleles = assay: HLA-DR cross-reactive binding, sequential screening panels of DR assays; parameters: species or system human; settings: primary through tertiary DR panels
HLA-A11 transgenic mice = assay: Transgenic CTL: CTL induction in HLA-A11 transgenic mice; format: in vivo; settings: responders/tested
A*0101 = A*0101 (Homo sapiens, UniProt P04439, A114D/A174V/A182V/D101N/D185E/E176A/E190D/L180R/Q94H/R68K/S129P/T187R/V100A/V91M/W191G)
HLA-A*0201 = HLA-A*0201 (Homo sapiens, UniProt P04439, D140Y/D185E/D98H/E176V/E277Q/G131W/G231S/I119V/I121R/I166T/I218V/L300P/L318F/N151K/N90K/P208A/P217A/Q86G/Q94H/R138H/R169H/T345S)
B*5401 = B*5401 (Homo sapiens, UniProt P01889, A329T/C349S/D138N/D201E/E176V/E187T/E204Q/E69G/I76V/K202T/L119W/R155S/R180L/S121T/S35A/S48A/V127L/V306I/V36M/Y140L); format: binding
A*0202 = A*0202 (Homo sapiens, UniProt P04439, D140Y/D185E/D98H/E176V/E277Q/G131W/G231S/I119L/I121R/I166T/I218V/L180W/L300P/L318F/N151K/N90K/P208A/P217A/Q67R/Q86G/Q94H/R138H/R169H/T345S); assay: Purified HLA class I peptide binding assay
A*0203 = A*0203 (Homo sapiens, UniProt P04439, A173T/D140Y/D185E/D98H/E277Q/G131W/G231S/I119V/I121R/I166T/I218V/L180W/L300P/L318F/N151K/N90K/P208A/P217A/Q86G/Q94H/R138H/R169H/T345S); assay: Purified HLA class I peptide binding assay
A*0206 = A*0206 (Homo sapiens, UniProt P04439, D140Y/D185E/D98H/E176V/E277Q/F33Y/G131W/G231S/I119V/I121R/I166T/I218V/L300P/L318F/N151K/N90K/P208A/P217A/Q86G/Q94H/R138H/R169H/T345S); assay: Purified HLA class I peptide binding assay
HLA-B*0702 = biological target: T1, HLA-B*0702 (Homo sapiens, UniProt P01889); assay: Purified HLA class I peptide binding assay; settings: HBV B07 supermotif peptides, Table XI; unit not given
T1 construct: endogenous in cells

## CC(C)C[C@H](NC(=O)[C@@H](N)CC(C)C)C(=O)N[C@H](C(=O)N1CCC[C@H]1C(=O)N[C@@H](Cc1ccccc1)C(=O)N[C@H](C(=O)N[C@@H](CCC(N)=O)C(=O)N[C@@H](Cc1c[nH]c2ccccc12)C(=O)N[C@@H](Cc1ccccc1)C(=O)N[C@H](C(=O)O)C(C)C)C(C)C)C(C)C [1069.06]
[1]
  CTL induction / immunogenicity in HLA-A*0201 transgenic mice (in words): induced CTL responses; also recorded: immunogenic
A*6802
  binding affinity for A*6802 (in words): high binding affinity

## CC(C)C[C@H](NC(=O)[C@H](C)NC(=O)[C@H](CO)NC(=O)[C@@H]1CCCN1C(=O)[C@@H](N)C(C)C)C(=O)N[C@@H](CC(N)=O)C(=O)N1CCC[C@H]1C(=O)N[C@@H](C)C(=O)O [Peptide 19.0016]
B51
  IC50: 786 nM

## CC[C@H](C)[C@H](NC(=O)[C@H](C)NC(=O)[C@H](CO)NC(=O)[C@@H](NC(=O)[C@H](Cc1ccccc1)NC(=O)[C@H](CCC(N)=O)NC(=O)[C@H](C)NC(=O)[C@H](CC(C)C)NC(=O)[C@H](CC(C)C)NC(=O)[C@H](Cc1ccccc1)NC(=O)[C@@H]1CCCN1)[C@@H](C)O)C(=O)N[C@@H](CS)C(=O)N[C@@H](CO)C(=O)N[C@H](C(=O)N[C@H](C(=O)O)C(C)C)C(C)C [Peptide F107.04]
Common HLA-DR alleles
  Total DR alleles bound: 7

## CC(C)C[C@H](NC(=O)CNC(=O)[C@@H](NC(=O)[C@H](Cc1ccccc1)NC(=O)[C@H](CC(N)=O)NC(=O)CNC(=O)[C@@H](NC(=O)[C@@H](N)CCCCN)C(C)C)[C@@H](C)O)C(=O)N[C@@H](Cc1ccc(O)cc1)C(=O)O [peptide 1142.05]
HLA-A11 transgenic mice; A3 supermotif peptides
  Immunogenicity transgenic: 0/3
HLA-A11 transgenic mice; non-crossreactive A3-supermotif peptides
  Immunogenicity transgenic: 0/3
A*0101
  binding to HLA-A1 (in words): capable of binding HLA-A1

## MMWYWGPSL
HLA-A*0201
  A*0201 (binding information): 0.6400

## NPLGFFPDQL
B51
  B*5101 (binding information): 0.0001

## SPEHCSPHTTA
B51
  B*5101 (binding information): 0.0001

## TPPAYRPPNA
B*5401
  B*5401 (binding information): 0.0100

## VLLDYQGMLPV
HLA-A*0201
  A*0201 (binding information): 0.5800
A*0202
  A*0202 (binding information): 0.2200
A*0203
  A*0203 (binding information): 4.9000
A*0206
  A*0206 (binding information): 0.3400
A*6802
  A*6602 (binding information): 0.0170

## VPNLQSLTNL
HLA-B*0702
  B*0702 (binding information): 0.0008
B51
  B*5101 (binding information): 0.0004
